Key:
PI3Kβ = PI3Kβ (Homo sapiens, UniProt P42338); assay: In vitro enzyme inhibition assay (Kinase Glo), PI3Kβ; format: biochemical
Description: (§1) (a) In Vitro Enzyme Inhibition Assay
(§2) The inhibition of PI3Kβ, PI3Kα, PI3Kγ and PI3Kδ was evaluated in a Kinase Glo based enzyme activity assay using human recombinant enzymes. The assay measures depletion of ATP after incubation with enzyme, PIP2 and ATP plus compound. ATP at the end of the reaction is detected by addition of Kinase Glo reagent, in this the Ultra Glo™ luciferase (Promega) uses the ATP as a substrate to catalyze the mono-oxygenation of luciferin and the generation of light. A direct relationship exists between the luminescence measured with the Kinase-Glo Plus Reagent and the amount of ATP remaining in a completed kinase reaction and luminescence is inversely related to kinase activity. Twelve different compound concentrations were tested and raw data from the inhibition of PI3Kβ, PI3Kα, PI3Kγ and PI3Kδ was plotted versus inhibitor concentration.
(§3) Compounds in 100% DMSO were added to assay plates by acoustic dispensing. PI3β was added in a Tris buffer (50 mM Tris pH7.4, 0.05% CHAPS, 2.1 mM DTT, and 10 mM MgCl2) and allowed to preincubate with compound for 20 min prior to addition of substrate solution containing PIP2 and ATP. The enzyme reaction was stopped after 80 min by the addition of Kinase Glo detection solution. […]
(§4) IC50 values were calculated using a log curve fitting to a non-linear regression package, fitting raw data to inhibitor concentration.

By UniProt entry, the sequences of proteins in these tests, tags left out. Where a name states a change or a piece, a line headed by the entry shows the natural chain unless it says otherwise.
UniProt P42338: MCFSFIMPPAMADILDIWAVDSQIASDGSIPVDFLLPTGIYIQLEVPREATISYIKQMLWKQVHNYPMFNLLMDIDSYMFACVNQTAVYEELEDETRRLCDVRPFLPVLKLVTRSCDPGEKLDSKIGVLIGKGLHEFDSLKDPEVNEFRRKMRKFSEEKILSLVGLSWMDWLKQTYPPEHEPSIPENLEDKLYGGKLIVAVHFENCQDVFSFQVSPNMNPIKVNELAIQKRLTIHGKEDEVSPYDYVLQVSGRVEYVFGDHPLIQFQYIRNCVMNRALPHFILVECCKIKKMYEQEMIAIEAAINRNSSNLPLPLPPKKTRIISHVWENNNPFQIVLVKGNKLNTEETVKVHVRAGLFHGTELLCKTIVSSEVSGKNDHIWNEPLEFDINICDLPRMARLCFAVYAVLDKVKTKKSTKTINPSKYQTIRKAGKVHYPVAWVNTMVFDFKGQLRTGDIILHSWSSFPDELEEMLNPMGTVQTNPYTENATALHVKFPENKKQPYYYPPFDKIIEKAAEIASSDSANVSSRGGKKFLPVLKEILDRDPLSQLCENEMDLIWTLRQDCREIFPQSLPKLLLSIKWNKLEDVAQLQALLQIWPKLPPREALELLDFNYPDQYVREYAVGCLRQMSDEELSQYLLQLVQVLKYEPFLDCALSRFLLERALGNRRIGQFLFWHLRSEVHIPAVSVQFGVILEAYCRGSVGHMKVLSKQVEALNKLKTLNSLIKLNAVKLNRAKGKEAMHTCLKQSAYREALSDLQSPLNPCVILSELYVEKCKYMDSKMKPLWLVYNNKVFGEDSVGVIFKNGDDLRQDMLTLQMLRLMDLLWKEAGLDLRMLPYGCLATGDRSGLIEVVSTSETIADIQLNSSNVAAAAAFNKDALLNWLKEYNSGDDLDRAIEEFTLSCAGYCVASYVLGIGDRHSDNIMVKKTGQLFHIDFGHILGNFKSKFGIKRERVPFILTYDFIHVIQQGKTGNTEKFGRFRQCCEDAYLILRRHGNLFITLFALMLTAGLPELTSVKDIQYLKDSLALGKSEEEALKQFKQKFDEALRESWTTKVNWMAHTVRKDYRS
UniProt O00329: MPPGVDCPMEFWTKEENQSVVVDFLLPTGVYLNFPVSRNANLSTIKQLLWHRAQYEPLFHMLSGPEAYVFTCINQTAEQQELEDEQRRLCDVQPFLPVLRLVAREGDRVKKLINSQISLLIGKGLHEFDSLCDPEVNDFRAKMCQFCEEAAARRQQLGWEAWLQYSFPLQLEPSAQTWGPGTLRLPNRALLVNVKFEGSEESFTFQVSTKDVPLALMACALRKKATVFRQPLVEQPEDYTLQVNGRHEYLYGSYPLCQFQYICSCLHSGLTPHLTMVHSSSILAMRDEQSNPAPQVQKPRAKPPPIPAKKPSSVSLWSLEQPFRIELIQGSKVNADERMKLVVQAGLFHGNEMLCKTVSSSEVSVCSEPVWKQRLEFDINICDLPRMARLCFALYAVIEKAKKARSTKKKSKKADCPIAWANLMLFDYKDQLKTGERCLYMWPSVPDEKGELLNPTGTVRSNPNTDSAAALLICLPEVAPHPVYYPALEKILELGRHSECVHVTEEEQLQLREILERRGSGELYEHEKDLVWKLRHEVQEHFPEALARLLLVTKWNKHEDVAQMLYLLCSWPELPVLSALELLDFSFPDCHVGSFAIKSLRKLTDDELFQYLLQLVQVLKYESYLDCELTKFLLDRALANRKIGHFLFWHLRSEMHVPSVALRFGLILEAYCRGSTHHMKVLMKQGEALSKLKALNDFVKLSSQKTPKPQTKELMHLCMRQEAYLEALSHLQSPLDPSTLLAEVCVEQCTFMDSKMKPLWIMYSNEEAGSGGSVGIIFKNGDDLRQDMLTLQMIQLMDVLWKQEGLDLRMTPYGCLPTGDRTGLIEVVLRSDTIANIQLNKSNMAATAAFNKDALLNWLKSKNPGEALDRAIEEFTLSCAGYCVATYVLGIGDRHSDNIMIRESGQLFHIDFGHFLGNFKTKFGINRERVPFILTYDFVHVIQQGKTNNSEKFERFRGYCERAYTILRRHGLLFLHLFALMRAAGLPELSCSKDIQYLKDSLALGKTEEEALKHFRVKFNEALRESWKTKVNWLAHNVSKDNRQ

PI3Kδ = PI3Kδ (Homo sapiens, UniProt O00329); assay: In vitro enzyme inhibition assay (Kinase Glo), PI3Kδ; format: biochemical
Description: as §1, §2, §3, §4

For CN(C)C(=O)c1cc(C2CCCN2c2ccccc2)c2oc(N3CCOCC3)cc(=O)c2c1 (centres unmarked) [Example 2.03, N,N-dimethyl-2-morpholino-4-oxo-8-(1-phenylpyrrolidin-2-yl)-4H-chromene-6-carboxamide], the IC50 (PI3Kβ) was 13 nM and the IC50 (PI3Kδ) was 14 nM.

— patent US8530470B2, “Chromenone derivatives” (Astrazeneca AB, priority 2011, dated 2013)
